Test results: patent US7452862B2, “Conformationally-controlled biologically active macrocyclic small molecules as motilin antagonists or ghrelin agonists” (Tranzyme Pharma, Inc., priority 2003, dated 2008)

Protein sequences, listed by entry. Tags and fused reporters are not part of them.
UniProt O43193, whole entry: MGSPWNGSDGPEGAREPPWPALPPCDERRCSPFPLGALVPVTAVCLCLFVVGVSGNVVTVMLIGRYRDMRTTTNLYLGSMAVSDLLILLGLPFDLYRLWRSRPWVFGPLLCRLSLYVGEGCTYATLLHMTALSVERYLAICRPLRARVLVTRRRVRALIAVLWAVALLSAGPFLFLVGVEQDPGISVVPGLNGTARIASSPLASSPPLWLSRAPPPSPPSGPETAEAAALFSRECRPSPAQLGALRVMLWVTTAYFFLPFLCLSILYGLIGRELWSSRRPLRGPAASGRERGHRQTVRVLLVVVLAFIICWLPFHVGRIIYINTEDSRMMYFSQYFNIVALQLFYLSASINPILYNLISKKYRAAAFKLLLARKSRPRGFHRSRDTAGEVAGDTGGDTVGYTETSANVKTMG
UniProt Q92847, whole entry: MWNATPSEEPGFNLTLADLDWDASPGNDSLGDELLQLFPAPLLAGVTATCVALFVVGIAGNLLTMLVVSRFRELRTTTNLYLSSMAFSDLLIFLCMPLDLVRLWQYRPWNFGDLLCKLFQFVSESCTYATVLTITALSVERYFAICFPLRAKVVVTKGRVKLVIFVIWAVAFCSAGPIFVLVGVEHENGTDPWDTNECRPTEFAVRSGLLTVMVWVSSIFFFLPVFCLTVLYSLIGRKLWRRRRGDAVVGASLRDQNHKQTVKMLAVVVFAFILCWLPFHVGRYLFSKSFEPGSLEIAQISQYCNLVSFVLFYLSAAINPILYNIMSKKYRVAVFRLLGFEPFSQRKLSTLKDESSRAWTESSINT

What was measured:
human motilin receptor = human motilin receptor (Homo sapiens, UniProt O43193); test: Competitive radioligand binding assay (motilin receptor), Method B1; details: read-out: Binding Affinity [Ki (μM)], [125I]-motilin, CHO cell membranes
[1] = target: human ghrelin receptor (hGHS-R1a) (Homo sapiens, UniProt Q92847); test: Competitive radioligand binding assay (ghrelin receptor), Method B2; details: read-out: Binding Affinity [Ki (μM)], [125I]-ghrelin, HEK-293 cell membranes

| Ki (human motilin receptor) | Ki [1] | SMILES |
| --- | --- | --- |
|  | 1 to 10 µM | CC(C)CC1NCc2ccccc2Sc2ccccc2CNC(=O)C(Cc2ccccc2)NC(=O)C2(CCCC2)NC1=O (stereo not drawn) |
|  | 0.1 to 1 µM | CCC(C)C1NCCCCCCCCNC(=O)C(Cc2cccc(Cl)c2)NC(=O)C2(CCCC2)NC1=O (stereo not drawn) |
|  | 0.1 to 1 µM | CCC(C)C1NCCCCCCNC(=O)C(Cc2cccc(Cl)c2)NC(=O)C2(CCCC2)NC1=O (stereo not drawn) |
|  | 0.001 to 0.1 µM | CC1CNC(C2CC2)C(=O)N(C)C(C)C(=O)NC(Cc2ccc(F)cc2)C(=O)NCCCc2ccccc2O1 (stereo not drawn) [compound 244] |
|  | 1 to 10 µM | CCC(C)C1NCCCCCNC(=O)C(Cc2cccc(Cl)c2)NC(=O)C2(CCCC2)NC1=O (stereo not drawn) |
| 0.001 to 0.1 µM |  | CCC[C@@H]1NC(=O)[C@@H](C(C)C)NC(=O)[C@@H](Cc2cccc(Cl)c2)NCCOc2ccccc2C(C)CCNC1=O (stereo partly drawn) |
|  | 0.1 to 1 µM | CCC(C)C1NCCOc2ccccc2C(C)(C)CCNC(=O)C(Cc2cccc(Cl)c2)NC(=O)C2(CCCC2)NC1=O (stereo not drawn) |
|  | 0.1 to 1 µM | CCC(C)C1NCCCCCCCNC(=O)C(Cc2cccc(Cl)c2)NC(=O)C2(CCCC2)NC1=O (stereo not drawn) |
| 0.001 to 0.1 µM |  | CC(C)[C@H]1NC(=O)[C@@H](Cc2cccc(Cl)c2)NCCOc2ccccc2C(C)(C)CCNC(=O)[C@H](CC2CC2)NC1=O |
| 0.1 to 1 µM |  | CC(C)[C@H]1NC(=O)[C@@H](Cc2cccc(Cl)c2)N[C@H](C)COc2ccccc2CCCNC(=O)[C@H](CNC(=N)N)NC1=O |
|  | 0.001 to 0.1 µM | CCC(C)[C@@H]1NC[C@H](C)Oc2ccccc2CCCNC(=O)[C@@H](Cc2cccc(Cl)c2)NC(=O)C2(CCCC2)NC1=O (stereo partly drawn) |

More lines, now with the values behind:

| SMILES | Ki (human motilin receptor) | Ki [1] |
| --- | --- | --- |
| CCC[C@@H]1NC(=O)[C@@H](C(C)C)NC(=O)[C@@H](Cc2ccc(O)cc2)NCc2csc(n2)CNC1=O | 0.1 to 1 µM |  |
| C[C@@H]1C(=O)N[C@H](Cc2ccc(F)cc2)C(=O)NCCC(C)(C)c2ccccc2OCCN[C@@H](C2CC2)C(=O)N1C |  | 0.1 to 1 µM |
| CC(C)[C@H]1NC(=O)[C@@H](Cc2cccc(Cl)c2)NCC[C@@H]2O[C@H](CNC(=O)[C@H](CC3CC3)NC1=O)[C@@H](O)[C@H]2O | 0.1 to 1 µM |  |
| CCC[C@@H]1NC(=O)[C@@H](C(C)C)NC(=O)[C@@H](Cc2ccc(O)cc2)NCc2coc(n2)CNC1=O | 0.1 to 1 µM |  |
| CC1CCNC(=O)[C@@H](Cc2ccc(F)cc2)NC(=O)[C@@H](C)N(C)C(=O)[C@H](C2CC2)NCCOc2ccccc21 (stereo partly drawn) |  | 0.1 to 1 µM |
| CC(C)[C@H]1NC(=O)[C@@H](Cc2cccc(F)c2)NCCOc2ccccc2C[C@H](C)CNC(=O)[C@H](CN(C)C)NC1=O | 0.001 to 0.1 µM |  |
| CCC[C@@H]1NCc2ccccc2Sc2ccccc2CNC(=O)[C@@H](Cc2ccccc2)NC(=O)CN(C)C1=O |  | 0.1 to 1 µM |
| CCC[C@@H]1NC(=O)[C@@H](C(C)C)NC(=O)[C@@H](Cc2c[nH]cn2)NCc2ccccc2Sc2ccccc2CNC1=O | 0.1 to 1 µM |  |
| CCC(C)[C@@H]1NC(=O)[C@@H](Cc2ccccc2)NCc2ccccc2Sc2ccccc2CNC(=O)[C@H](Cc2ccc(O)cc2)NC1=O (stereo partly drawn) | 1 to 10 µM |  |
| CCC[C@@H]1NC(=O)[C@@H](C(C)C)NC(=O)[C@@H](Cc2cccc(F)c2)NCCOc2ccccc2C(C)CCNC1=O (stereo partly drawn) | 0.001 to 0.1 µM |  |
